{"source": "patent US20250197870A1", "about": "“RECOMBINANT E. COLI STRAIN PRODUCING 1,3-BUTANEDIOL FROM GLUCOSE AND METHOD FOR PRODUCING 1,3-BUTANEDIOL USING SAME” (ActivON Co.,Ltd., priority 2022, published 2025)", "tested_on": "growth of strains"}
{"smiles": "CC(O)CC=O", "note": "(centres unmarked) [Strain 3-HBA, 3-hydroxybutyraldehyde]", "values": [{"measurement": "concentration exhibiting high toxicity to cell growth", "setting": "FIG. 9", "result": "~6000", "unit": "µM"}, {"measurement": "toxicity compared with other aldehydes (in words)", "setting": "versus acetaldehyde and propionaldehyde", "result": "more toxic than other aldehydes"}]}
